# Only a part is listed here, and it is no random draw. Some tests of the compounds listed are not included; inactive here does not mean inactive elsewhere. Active and inactive are the calls of the source. The call rests on the fitted dose curve; in most records, active means well fitted inhibition curve with a large enough effect; inconclusive means small, poorly fitted or top-dose-only effect; inactive means flat fitted curve, though single readings scatter.
# Sequences of proteins named here, by UniProt entry; tags and fusion partners are left off.
# UniProt P08659, whole entry: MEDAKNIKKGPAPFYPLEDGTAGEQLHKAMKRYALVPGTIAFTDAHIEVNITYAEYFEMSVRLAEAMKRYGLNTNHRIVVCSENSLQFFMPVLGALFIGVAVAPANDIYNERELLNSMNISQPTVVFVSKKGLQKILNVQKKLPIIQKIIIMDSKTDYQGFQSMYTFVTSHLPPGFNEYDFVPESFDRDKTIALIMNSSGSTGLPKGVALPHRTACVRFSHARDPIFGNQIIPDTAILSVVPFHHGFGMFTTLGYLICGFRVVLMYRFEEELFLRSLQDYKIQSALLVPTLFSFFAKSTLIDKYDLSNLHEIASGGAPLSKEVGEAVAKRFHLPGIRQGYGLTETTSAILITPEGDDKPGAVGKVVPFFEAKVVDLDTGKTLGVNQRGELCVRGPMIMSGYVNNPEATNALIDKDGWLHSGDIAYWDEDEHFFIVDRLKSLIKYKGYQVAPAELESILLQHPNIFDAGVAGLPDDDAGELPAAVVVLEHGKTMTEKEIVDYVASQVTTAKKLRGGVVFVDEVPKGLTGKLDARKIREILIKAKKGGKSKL
# Biological target: Luciferin 4-monooxygenase (Photinus pyralis) (UniProt P08659)
# Assay: qHTS Assay for Inhibitors of Firefly Luciferase; further: nearly all actives have a fitted effect of over 40% in size
# Conditions: purified firefly luciferase, luminescence, 8 min; at 11.4 µM (top of the series) unless noted
# Procedure: To aid in the interpretation of high-throughput screening (HTS) results derived from luciferase-based assays, we used quantitative HTS, an approach that defines the concentration-response behavior of each library sample, to profile the ATP-dependent luciferase from Photinus pyralis against more than 72 000 samples. Luciferase (PKLight, Cambrex Corporation) was assayed for its ability to generate light using ATP and luciferin as substrates. The ATP concentration in the assay (10 uM) was within the linear range of enzyme activity for the assay conditions used. See following reference for further details: [1] Auld DS, Southall NT, Jadhav A, Johnson RL, Diller DJ, Simeonov A, Austin CP, Inglese J. Characterization of chemical libraries for luciferase inhibitory activity. J Med Chem. 2008 Apr 24;51(8):2372-86. Auld DS, Zhang YQ, Southall NT, Rai G, Landsman M, Maclure J, Langevin D, Thomas CJ, Austin CP, Inglese J. A Basis for Reduced Chemical Library Inhibition of Firefly Luciferase Obtained from Directed Evolution. J. Med. Chem., 2009, 52 (5), pp 1450#1458 [3] Auld DS, Thorne N, Nguyen DT, Inglese J. A specific mechanism for nonspecific activation in reporter-gene assays. ACS Chem Biol. 2008 Aug 15;3(8):463-70. Auld DS, Thorne N, Maguire WF, Inglese J. Mechanism of PTC124 activity in cell-based luciferase assays of nonsense codon suppression. Proc Natl Acad Sci U S A. 2009 Mar 3;106(9):3585-90. Inglese J, Auld DS, Jadhav A, Johnson RL, Simeonov A, Yasgar A, Zheng W, Austin CP. Quantitative high-throughput screening: a titration-based approach that efficiently identifies biological activities in large chemical libraries. Proc Natl Acad Sci U S A. 2006 Aug 1;103(31):11473-8.
# Four uL of substrate mix (final concentration, 50 mM imidazole pH 7.2, 50 mM KCl, 7 mM MgCl2, 10 uM ATP, 0.01% Tween 20, 0.05% BSA) was dispensed into white 1536 well plates. Twenty-three nL of compound was delivered by a pin tool and 2 uL of luciferase detector mix (PKLight, Cambrex) was added. Following 8-minute incubation at ambient temperature, luminescence was measured by a ViewLux (Perkin Elmer) at 5 seconds exposure/plate.
# On the % scale 0 is the no-effect control and ±100 the full control effect.
row,SMILES,"activity change, negative = inhibition"
1,C=C(C)C#C[C@@](O)(C(=O)OC1CCN(C)CC1)c1ccccc1,inactive: 2.5%
2,O=C(OC1CN2CCC1CC2)C(CO)(c1ccccc1)c1ccccc1 (stereo not given),inactive: 0.0751% [at 57.1 µM]
3,CN1CC[C@H](OC(=O)[C@](O)(c2ccccc2)C2CCCC2)C1,inactive: 6.51%
4,CN1CCC[C@H](OC(=O)[C@](O)(c2ccccc2)C2CCCC2)C1,inactive: 2.8%
5,CN(C)c1cccc(C(=O)NCC2(N(C)C)CCCCC2)c1,inactive: 3.12% [at 57.1 µM]

# — PubChem BioAssay AID411 (National Center for Advancing Translational Sciences (NCATS), 2006)
